Usually IC50 stands for the point on the concentration scale where inhibition reaches its midpoint.

By UniProt entry, the sequences of proteins in these tests, tags left out.
UniProt Q07820, whole entry: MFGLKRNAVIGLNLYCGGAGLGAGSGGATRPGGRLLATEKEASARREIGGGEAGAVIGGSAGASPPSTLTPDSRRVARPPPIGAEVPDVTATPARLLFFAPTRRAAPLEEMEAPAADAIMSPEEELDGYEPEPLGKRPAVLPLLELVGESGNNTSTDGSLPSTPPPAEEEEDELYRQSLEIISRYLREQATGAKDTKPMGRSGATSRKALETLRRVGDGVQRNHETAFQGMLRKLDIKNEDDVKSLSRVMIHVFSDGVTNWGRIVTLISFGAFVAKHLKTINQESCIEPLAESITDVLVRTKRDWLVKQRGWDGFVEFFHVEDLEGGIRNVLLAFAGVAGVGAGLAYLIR

For one compound, IC50 results are on record in PubChem BioAssay AID1418 (Emory University Molecular Libraries Screening Center, 2008).

Active and inactive are the calls of the source. How the calls were made is not given here.

The target of the test is Induced myeloid leukemia cell differentiation protein Mcl-1 (Homo sapiens) (UniProt Q07820). The test can be described thus: blockers of Bid binding to Mcl-1 – biochemical, TR-FRET, dose response (AID 1418). The following applies: Mcl-1/Bid peptide binding, TR-FRET (europium/Dy647), 2 hr. A general note: In TR-FRET formats the signal depends on donor and acceptor labels being close together.

As to `Cc1ccc(OCC(C)C)c(CN(CCCl)CCCl)c1`, the IC50 was inactive: > 54 µM.
